## Measured affinities in a library of Ab-14 light chain variants

Values reported by Li et al. 2023, doi:10.1038/s41467-023-39022-2 (FLAb copy).

Binding partner: SARS-CoV-2 spike HR2 peptide, sequence PDVDLGDISGINAS.

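The parent was found by panning a naive human phage display library on the peptide. Designed CDR sequences, proposed from the first random library and measured here. Several design methods are mixed in this list. The assay is AlphaSeq: two haploid yeast populations carry antibody and antigen on their surface. The frequency of each diploid, read from paired DNA barcodes, reflects how well the two displayed proteins bind. Scores were corrected for input abundance and mapped to Kd with protein pairs of known affinity run in the same pool. The assay was run in six technical replicates.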

The variants keep the heavy chain, the linker and the frameworks of Ab-14 (scFv order VH, a (GGGGS)3 linker, VL).
VH: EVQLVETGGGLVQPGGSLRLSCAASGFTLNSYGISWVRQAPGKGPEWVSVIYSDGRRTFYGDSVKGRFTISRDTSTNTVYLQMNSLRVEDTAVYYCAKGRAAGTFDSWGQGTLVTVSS
VL: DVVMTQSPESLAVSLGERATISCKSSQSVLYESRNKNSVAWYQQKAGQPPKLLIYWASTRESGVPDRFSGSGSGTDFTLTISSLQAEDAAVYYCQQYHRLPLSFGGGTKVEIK

The parent's light chain CDRs are KSSQSVLYESRNKNSVA, WASTRES, QQYHRLPLS; each variant's own CDRs replace them letter for letter. Affinities are written as log10 Kd with Kd in nM; a lower number is a better binder. Averages over replicates are reported, and they cover detected replicates only. "nd" marks a missing value. The strain was present, yet no cells mated with the target were sequenced in that replicate, which points to weak or no binding. Background: pairings of all light chain designs with three empty control strains gave a value in 4% of cases (median 2.64, 5th percentile 1.59). Values in that range, when seen in few replicates, are hard to tell from nonspecific mating. For each scFv, signals with the empty controls are counted beside the result. Of ten entries with the parent sequence, four were seen in most replicates (averages 0.34 to 2.37), three in one and three in none, so single entries are noisy. In the paper, a design with two or fewer of six values counts as a poor binder. Values of this round are not directly comparable with the first-round values of the same sequences.

The variant KHEQGDLYESRNKNSVA | GASVRES | QQYHRLPLS showed -0.05, -0.06, -0.26, -0.32, -0.51, -0.19 (mean -0.23; controls 0 of 18).
The variant KLSQSWLYESRNKNSVA | NASYRES | QQYHRLPLS showed 0.18, 0.02, 0.02, -0.04, -0.08, 0.29 (mean 0.07; controls 2 of 18).
The variant KVVQSWLYESRNKNSVA | NASQRES | QQYHRLPLS showed 0.07, 0.18, -0.02, -0.01, -0.01, 0.19 (mean 0.07; controls 2 of 18).
The variant ILGDSVLTLSRNKNSVA | DNSTRES | QQYDRLPLS showed 1.32, 0.86, 0.59, 1.06, 0.92, 0.90 (mean 0.94; controls 0 of 18).
The variant NLSWKQIMQNMDSMAVA | QTEQRNA | QQYARLPLS showed 0.95, 0.23, -0.37, 0.31, 0.04, 0.09 (mean 0.21; controls 0 of 18).
The variant KLSQMQLYESRNKNSVA | NASTRES | QQYHRLPLS showed -0.73, -0.75, -0.61, -0.90, -0.68, -0.53 (mean -0.70; controls 0 of 18).
The variant KLVESELYESRNSNSVA | NASYRES | QQYHRLPLS showed 0.35, 0.22, -0.05, 0.23, 0.15, 0.46 (mean 0.23; controls 0 of 18).
The variant KLSMSVLMEQRNHNSVA | SANTREE | QQYHRLPLS showed 0.47, 0.08, -0.24, -0.30, -0.07, 0.09 (mean 0.01; controls 1 of 18).
The variant KSSKSVLFESRNKNSVA | NASTRED | QQYHRLPLS showed 0.55, 0.67, 0.52, 0.43, 0.76, 0.40 (mean 0.55; controls 2 of 18).
The variant KLSLGLGVSKQVEKNIA | NERLKIA | QQYDRLPLT showed 0.97, 1.04, 0.48, 0.56, 0.60, 0.82 (mean 0.74; controls 1 of 18).
The variant KQDQSCGGEQRNKNSVA | SASTRCE | QQYHRLPLS showed 0.87, 1.11, 0.68, 0.87, 0.70, 0.51 (mean 0.79; controls 0 of 18).
The variant KLSVSYLFESIEKNSVA | ERSTRES | QDYNRLPLS showed 3.53, 1.57, 1.15, 2.17, 1.71, 2.78 (mean 2.15; controls 1 of 18).
The variant KLQQQTLYESRNKNSVA | SASTRES | QQYHRLPLS showed -0.28, -0.12, -0.51, 0.37, 0.27, -0.13 (mean -0.07; controls 0 of 18).
The variant SVTIEMDQQQEQYNSVA | GEQKTAD | QQYGRLPLS showed 1.53, 1.78, 1.31, 1.85, 1.03, 1.89 (mean 1.56; controls 0 of 18).
The variant KISQMVNYESTHLNAVA | QMSTREE | QQYFRLPLS showed 0.97, 0.86, 0.96, 0.64, 0.73, 0.93 (mean 0.85; controls 3 of 18).
The variant KFSQSVPQESRNKNSVA | WASTRES | QQYHRLPLS showed 0.96, 0.60, 0.62, 0.63, 0.71, 1.18 (mean 0.78; controls 0 of 18).
The variant IVSQLMLWGMHAKNSIA | EAEKRIN | QQYHRLPLM showed nd, nd, nd, nd, nd, nd (controls 0 of 18).
The variant KLSQITGHLSVSKNNVA | EMETREN | QQYDRLPLA showed 0.31, 0.73, 1.08, 0.59, 0.39, 0.60 (mean 0.62; controls 0 of 18).
The variant SSSQSLLYESMEKNSVA | WASTRES | QQYHRLPLS showed nd, nd, nd, nd, nd, nd (controls 1 of 18).
The variant NLPMKELGMSWNANNVA | DSENRMK | QQYSRLPLM showed 2.69, 2.96, nd, 3.20, nd, 2.70 (mean 2.89; controls 4 of 18).
The variant HLLQTVMYGSTRKNNVA | HAQTREN | QQYHRLPLS showed 1.64, 1.31, 1.16, nd, 1.53, 1.58 (mean 1.44; controls 0 of 18).
The variant KLLQVTENMSLHRNSVA | HMSTRED | QQYHRLPLS showed 1.25, 1.00, 1.07, 1.50, 0.83, 1.07 (mean 1.12; controls 2 of 18).
The variant KVSPSWLYESRNKNSVA | EASTRES | QQYHRLPLS showed 0.04, -0.30, -0.20, -0.32, -0.26, -0.22 (mean -0.21; controls 0 of 18).
The variant KLSQSELYESRCDNSVA | NASTRCE | QQYHRLPLS showed 0.56, 0.74, 0.56, 0.58, 0.49, 0.62 (mean 0.59; controls 4 of 18).
The variant KSSWSVLTESRNKNSVA | WASTRCS | FQYHVLPLS showed 0.96, nd, nd, nd, nd, nd (controls 0 of 18).
The variant KLSWKSLGFETRWMAIA | NTKERNA | QQYARLPLS showed 1.20, nd, 2.07, 1.10, 1.92, 0.93 (mean 1.45; controls 0 of 18).
The variant IIAQLMYWGNKSANSIA | QASQRLN | QQYHHLPLT showed nd, 1.80, 2.29, nd, 1.86, 1.48 (mean 1.86; controls 0 of 18).
The variant KLSQSELYESRNKNSVA | QASTRES | QDYHRLPLS showed 0.61, 0.38, 0.92, 0.53, 0.70, 0.77 (mean 0.65; controls 2 of 18).
The variant KSSQSVLFESRTKNSIA | AASTRES | QQYHRLPLS showed nd, nd, nd, nd, nd, nd (controls 0 of 18).
The variant FLSQSVLYEDRNKNSVA | NASQRES | QQYHRLPLS showed -0.25, -0.34, -0.24, -0.50, -0.38, -0.39 (mean -0.35; controls 4 of 18).
The variant KSSQSVLGESSNKNSVA | KASTRES | QQYHRLPCS showed nd, nd, nd, nd, nd, nd (controls 0 of 18).
The variant KLSQSYLYESRNKNSVA | NASYRES | QQYHRLPLS showed 0.24, -0.03, 0.07, 0.10, 0.02, 0.00 (mean 0.07; controls 1 of 18).
The variant TIGPMLATESRNKNSVA | GMQTRES | QQYHRLPLS showed 0.20, 0.10, -0.34, -0.34, 0.21, 0.22 (mean 0.01; controls 1 of 18).
The variant HISDLTMVASRNKNSVA | EESTRPD | QQYHRLPLS showed 0.94, 0.91, 0.57, 0.71, 0.58, 0.83 (mean 0.76; controls 3 of 18).
The variant TISQSMLYLSNLKNSVA | QAETRVS | QQYHRLPIS showed 2.11, 1.53, 1.15, 1.22, 0.90, 1.04 (mean 1.32; controls 2 of 18).
The variant TISQMWNMGQFAINSVA | QASERNT | QQYDRLPLI showed 0.75, 1.62, 1.20, 0.99, 0.89, 1.64 (mean 1.18; controls 0 of 18).
The variant KMSQSMLYESRNKNSVA | DASQRES | QQYHRLPLS showed -0.08, -0.33, -0.44, -0.46, -0.16, 0.08 (mean -0.23; controls 0 of 18).

For reference, 3 entries of the list once more:

HLLQTVMYGSTRKNNVA | HAQTREN | QQYHRLPLS: 1.64, 1.31, 1.16, nd, 1.53, 1.58 (mean 1.44; controls 0 of 18).
KLSQSELYESRCDNSVA | NASTRCE | QQYHRLPLS: 0.56, 0.74, 0.56, 0.58, 0.49, 0.62 (mean 0.59; controls 4 of 18).
NLSWKQIMQNMDSMAVA | QTEQRNA | QQYARLPLS: 0.95, 0.23, -0.37, 0.31, 0.04, 0.09 (mean 0.21; controls 0 of 18).